Bioassay records from PubChem BioAssay.
Hits are enriched below; roughly 4.2% of the tested compounds scored in any of these assays.
MC4R antag cAMP – human MC4R antagonism in cAMP assay | P32245 | MC4R-expressing cells, MTII-stimulated cAMP, LANCE TR-FRET | inhibition, % at 6.5 µM | 360,000 compounds, 0.48% hits | AID 540295;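 active = inhibition above its plate's cutoff, the mean of tested wells on that plate plus 3 SD, cut at about 29% in these data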;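 note: 0% = Melanotan II alone and 100% = Melanotan II plus saturating MCL0020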
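Material: U2OS-MC4R stable cell line | Reagent: Melanotan II challenge after compound preincubation | Doses: One concentration, 6.5 µM nominal | Incubation: 30-min compound preincubation, 1-h Melanotan II challenge, 1-h detection, room temperature | Signal: TR-FRET cAMP assay | Replicates: One well per compound, no replicates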
Yeast UUG start-1 – modulators of start codon recognition fidelity in yeast; AID 602363; activity score, % at 18.7 µM; S. cerevisiae UUG-firefly luciferase reporter, luminescence/redox ratio; 0.13% of 350,000 active;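 active = replicate mean at a twofold rise or more, about +100% in these data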;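 note: firefly luciferase made from a UUG start codon reports start codon fidelity; reporter light over untreated wells divided by growth signal over untreated wells; some hits fall short of that in this replicate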
ALR H2O2 inh – human ALR oxidase inhibition via reduced H2O2; P55789; purified ALR, DTT oxidation, H2O2 HRP-luminol luminescence; inhibition, % (concentration not given with the values); actives 3.8% (n = 290,000); AID 485317;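 active = mean and each replicate at 75% or more; inconclusive = only one of the two met; inactive = neither met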;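 note: stock transfer was 7.5 nL into about 7.5 µL; 0% = neutral wells and 100% = wells with inactivated enzyme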
MC4R ag barr – agonists of human melanocortin 4 receptor (MC4R) beta-arrestin | AID 540308 | 360,000 compounds, 0.98% hits | activation, % at 8.9 µM | U2OS MC4R beta-arrestin complementation, luminescence; percent of melanotan II response, DMSO zero | P32245;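 active = activation above a per-plate cutoff, the mean activation of sample wells on that plate plus 3 SD, cut at about 8% in these data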
HDAC3 inhib – human HDAC3 inhibition. O15379. recombinant HDAC3, fluorogenic peptide/trypsin coupled, fluorescence. inhibition, % at 8.3 µM. 320,000 compounds, 0.15% hits. AID 2718; in the data active = inhibition above about 26%, passing the limit was not always enough
NALP1 inh – NALP1 inhibition. S. cerevisiae NALP1/ASC/caspase-1 growth, X-gal OD620, 72 h. inhibition, % at 10 µM. 280,000 compounds, 0.61% hits; in the data active = inhibition mostly above about 24%, no sharp cut-off; inactive = mostly below about 32%
Yeast UUG start-2 – yeast start codon fidelity modulation. S. cerevisiae UUG-start firefly luciferase, luminescence, 4 h; 100% means double the DMSO signal. activation, % at 38 µM. AID 652061. 540 tested, under 10 active. shares compounds with Yeast UUG start-1;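 active = signal increase whose fitted curve reaches an absolute level of 40 at a concentration under 10 µM; inactive = activity opposite to the expected increase, or the rest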
Starred values were filed as active, the others as inactive; . = no result.

nr | MC4R ag barr | Yeast UUG start-1 | Yeast UUG start-2 | ALR H2O2 inh | MC4R antag cAMP | HDAC3 inhib | NALP1 inh | structure
1 | . | -40 | . | . | . | . | . | OC[C@@H]1[C@@H](c2ccc(-c3cccnc3)cc2)[C@@H]2CN(Cc3ccccn3)CCCCN12
2 | -1 | 557* | 6 | . | -5 | -4 | -12 | Cc1ccc(NC(=O)/C(=C\c2cccc([N+](=O)[O-])c2)NC(=O)c2cccs2)cc1
3 | -2 | . | 0 | 3 | 6 | 6 | -5 | CC(=O)N1CCN(c2ccc([N+](=O)[O-])cc2)CC1
4 | 2 | 1 | -7 | -13 | 11 | 5 | 16 | CCOCC(=O)N1CCN(c2ccc([N+](=O)[O-])cc2)CC1
5 | 0 | -16 | . | 68 | -4 | 1 | 9 | CCOCC(=O)N1CCN(c2ccc(F)cc2)CC1
6 | 0 | . | -5 | -4 | 5 | 1 | 34 | CC(=O)OCC(=O)N1CCN(c2ccc([N+](=O)[O-])cc2)CC1
7 | . | 7 | . | . | . | . | . | C[C@H](CO)N1C[C@H](C)[C@@H](CN(C)C)Oc2ccc(NS(=O)(=O)c3ccc(F)cc3)cc2C1=O
8 | 2 | 479* | -1 | . | -5 | 5 | 2 | COC(=O)c1cn(NC(=O)Cc2ccc(OC)c(OC)c2)c(=O)c2ccccc12
9 | -1 | -1 | . | -2 | 15 | -6 | -3 | COc1cccc(C(=O)N2CCN(C(=O)c3cccc4ccccc34)CC2)c1OC
10 | -1 | 146* | -1 | -5 | 3 | -4 | -6 | COc1ccc(CN2CCN(C(=O)c3cccc4ccccc34)CC2)c(OC)c1OC
11 | 1 | -18 | -8 | 6 | 13 | 0 | 23 | CCN(CC)CCNC(=O)Cc1nn(Cc2ccccc2)c(=O)c2ccccc12
12 | -1 | -4 | . | 7 | -5 | -6 | 19 | CCN(CC)CCNC(=O)Cn1nc(Cc2ccncc2)c2ccccc2c1=O
13 | . | 14 | . | . | . | . | . | C[C@@H]1CCCCO[C@H](CN(C)C(=O)CCCN(C)C)[C@H](C)CN([C@@H](C)CO)C(=O)c2cc(NS(=O)(=O)c3ccc(F)cc3)ccc2O1

Ordered by value in Yeast UUG start-1 (largest number first): some entries from above
cpd | molecule | Yeast UUG start-1
10 | COc1ccc(CN2CCN(C(=O)c3cccc4ccccc34)CC2)c(OC)c1OC | 146*
13 | C[C@@H]1CCCCO[C@H](CN(C)C(=O)CCCN(C)C)[C@H](C)CN([C@@H](C)CO)C(=O)c2cc(NS(=O)(=O)c3ccc(F)cc3)ccc2O1 | 14
11 | CCN(CC)CCNC(=O)Cc1nn(Cc2ccccc2)c(=O)c2ccccc12 | -18
